Values quoted from earlier work in US12233128B2, “Degraders that target ALK and therapeutic uses thereof” (DANA-FARBER CANCER INSTITUTE, INC., priority 2018, dated 2025).

System: ALK-positive tumors
Conditions: ALK-positive NSCLC, before resistance develops; cited from earlier work

| Structure (SMILES) | median duration of initial response [months] |
| --- | --- |
| CCc1cc2c(cc1N1CCC(N3CCOCC3)CC1)C(C)(C)c1[nH]c3cc(C#N)ccc3c1C2=O [alectinib] | 25.7 |
| C[C@@H](Oc1cc(-c2cnn(C3CCNCC3)c2)cnc1N)c1c(Cl)ccc(F)c1Cl [crizotinib] | 10.9 |
